Test results taken from patent US20040023887A1 (published 2004).

Target: Insulin Receptor (IR) (UniProt P06213 28-956, limits assumed)
Test: BIAcore competition: IR pre-incubated with competitor, residual binding to immobilised insulin

LCQRLGVGWPGWLSGWCA (other, not shown: large carriers, also called hGH Pept; Fus) [447-MBP]
Result (RUs): 195 RU
